From patent publication US8092833B2, “Compositions containing inclusion complexes” (California Institute of Technology, priority 2000, dated 2012)

By UniProt entry, the sequences of proteins in these tests, tags left out.
UniProt P02786, whole entry: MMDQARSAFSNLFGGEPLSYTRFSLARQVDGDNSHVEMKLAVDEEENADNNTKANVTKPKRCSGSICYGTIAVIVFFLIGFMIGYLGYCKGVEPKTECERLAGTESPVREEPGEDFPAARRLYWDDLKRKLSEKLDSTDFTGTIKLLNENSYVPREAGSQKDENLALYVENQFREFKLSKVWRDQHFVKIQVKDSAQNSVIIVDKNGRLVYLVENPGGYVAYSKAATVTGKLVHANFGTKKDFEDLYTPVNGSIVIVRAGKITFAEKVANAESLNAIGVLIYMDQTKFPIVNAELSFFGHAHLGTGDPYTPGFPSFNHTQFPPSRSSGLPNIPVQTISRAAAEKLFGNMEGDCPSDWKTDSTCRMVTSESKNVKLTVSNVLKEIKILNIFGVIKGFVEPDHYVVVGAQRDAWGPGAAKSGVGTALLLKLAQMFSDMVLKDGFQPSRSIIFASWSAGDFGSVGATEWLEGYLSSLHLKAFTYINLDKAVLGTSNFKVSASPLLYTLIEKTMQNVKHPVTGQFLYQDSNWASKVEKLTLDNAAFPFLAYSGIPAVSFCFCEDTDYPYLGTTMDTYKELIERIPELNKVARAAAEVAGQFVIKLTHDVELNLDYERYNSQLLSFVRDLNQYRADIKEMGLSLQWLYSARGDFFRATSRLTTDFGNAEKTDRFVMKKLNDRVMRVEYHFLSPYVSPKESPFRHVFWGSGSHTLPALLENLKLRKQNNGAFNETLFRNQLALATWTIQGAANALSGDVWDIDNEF

Experiments:
[1] = Iron-loading efficiency of transferrin compounds (A465/A280); format: physicochemical
Protocol: 40 mg of apo-transferrin-based compound (apo-transferrin or apo-transferrin-PEG-Ad) was dissolved in 700 μL of dH2O. To this solution was added 200 μL of 5 mM Iron Citrate and 100 μL of 84 mg/mL NaHCO3. This solution was allowed to stand for 2-3 hours and then dialyzed against PBS overnight. The iron-loading efficiency was calculated by determining ratio of absorbance at 465 nm (from the oxidized iron) to the ratio of absorbance at 280 nm (from the tryptophan residues in the protein) and normalizing to the A465/A280 ratio of commercially available holo-transferrin. The iron loading efficiency for transferrin, transferrin in the oxidation buffer (sodium acetate pH 5) and freshly oxidized transferrin was determined and shown in FIG. 21.
Apo-transferrin and Tf-PEG-Ad were iron-loaded according to the procedure described in Example 55. The extent of iron-loading was quantified as described. The iron-loading efficiency of Tf-PEG-Ad synthesized by coupling via lysine groups was nearly 100%.

[2] = biological target: T1, transferrin receptors on PC3 cells (Homo sapiens, UniProt P02786); test: Competition with FITC-transferrin for transferrin receptors on PC3 cells, FACS; format: binding; conditions: 250 nM FITC-Tf
T1 construct: endogenous in cells; host or cells: PC3 cells
Protocol: PC3 cells were incubated with 250 nM fluorescein-transferrin (FITC-TF) with various amounts of unlabeled transferrin and transferrin-PEG-Ad. FITC-hTF cell association was assessed by FACS analysis.
PC3 cells were plated in 6 well plates at 125,000 cells/ml. After 24 hours, the cells were exposed to 250 nM FITC-Tf mixed with various concentrations of hTf, hTf-PEG-Ad (synthesized by oxidation of hTf), hTf-PEG-Ad (synthesized by VS-lysine reaction and purified) and hTf-(PEG-Ad)2 (synthesized by VS-lysine reaction and purified). Uptake after 20 minutes exposure was determined by FACS. Unlike the Tf-PEG-AD synthesized by transferrin oxidation, the Tf-PEG-Ad compounds synthesized by lysine coupling competes effectively with the FITC-Tf for receptors on the PC3 cell surfaces.

Substance | competition with FITC-transferrin for receptors [2] | further results
Tf-PEG-Ad: human transferrin coupled via lysine groups to Vinylsulfone-PEG3400-Ad |  | iron-loading efficiency ([1]; synthesized by coupling via lysine groups, normalized to holo-transferrin): ~100%
freshly oxidized transferrin: transferrin oxidized with sodium periodate |  | effect of oxidization on iron loading efficiency [1]: reduces the iron loading efficiency
transferrin-PEG-Ad: human transferrin oxidized at carbohydrate groups and coupled to Ad-PEG5000-NH-NH2 | competes very poorly | 
transferrin: unlabeled human transferrin | competes very efficiently | 
